# Source: PubChem BioAssay AID624126 (The Scripps Research Institute Molecular Screening Center, 2012)
# Amino acid sequences for entries named in this document (tags omitted).
# UniProt P08173, whole entry, looked up: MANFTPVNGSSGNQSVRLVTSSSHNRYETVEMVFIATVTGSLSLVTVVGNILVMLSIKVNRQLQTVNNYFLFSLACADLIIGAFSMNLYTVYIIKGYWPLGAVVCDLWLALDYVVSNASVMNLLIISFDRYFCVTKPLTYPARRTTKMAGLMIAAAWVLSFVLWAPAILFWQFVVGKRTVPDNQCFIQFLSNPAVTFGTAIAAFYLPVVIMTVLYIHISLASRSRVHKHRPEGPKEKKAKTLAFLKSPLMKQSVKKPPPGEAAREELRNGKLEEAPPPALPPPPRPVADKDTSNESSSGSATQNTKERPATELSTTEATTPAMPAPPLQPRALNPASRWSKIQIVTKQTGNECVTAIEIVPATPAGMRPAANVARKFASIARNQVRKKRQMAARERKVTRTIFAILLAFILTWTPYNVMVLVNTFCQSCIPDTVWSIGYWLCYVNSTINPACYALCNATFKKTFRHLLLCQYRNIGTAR
# The entries are a selection whose mix differs from that of the whole data set. The source made the active and inactive calls.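 Rule for the calls: active = activation above its plate's cutoff, the mean activation of sample wells plus 3 SD; inactive = the rest.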
# Molecular target: Muscarinic acetylcholine receptor M4 (Homo sapiens) (UniProt P08173)
# Assay: CHRM4 PAMs potentiating acetylcholine calcium signal – CHO-K1 cells, Fluo-8 calcium fluorescence, primary screen (AID 624126)
# Details: CHO-K1 hM4/Gqi5, Fluo-8 calcium fluorescence, ACh EC20; at 3 µM; active compounds read high; 0% = ACh EC20, 100% = maximal ACh
row,Compound,activation
1,Nc1ccc([As](=O)(O)c2ccc([N+](=O)[O-])cc2)cc1,inactive: 3.36%
2,O=C(OC1CN2CCC1CC2)c1cccc(Cl)c1 (centres undefined),inactive: -29.1%
3,CC(C)C(=O)NC(Sc1ccccc1)C(Cl)(Cl)Cl (centres undefined),inactive: 0.69%
4,O=P(Nc1nccs1)(c1ccccc1)c1ccccc1,inactive: 0.97%
5,c1nnnn1CCn1cnnn1,inactive: 7.12%
6,CCOc1ccc(C2=NCC(CBr)S2)cc1 (centres undefined),inactive: -0.99%
7,O=P1(Nc2nc3ccc(Cl)cc3s2)COc2ccccc2O1 (centres undefined),inactive: 2.89%
8,CCc1cc(O)c([N+](=O)[O-])c(C)c1[N+](=O)[O-],inactive: 1.72%
9,CC(C)(C)C(=O)NC(Sc1ccccc1)C(Cl)(Cl)Cl (centres undefined),inactive: -6.58%
10,COC(=O)C1(C)COP(=O)(NCc2ccccc2)OC1 (centres undefined),inactive: -2.47%
11,CC1C(=O)OC2CCN3CC=C(COC(=O)C(C)(O)C1(C)O)C23 (centres undefined),inactive: 6.92%
12,CC(=O)c1ccc(N2CC2c2ccncc2)cc1 (centres undefined),inactive: 2.7%
13,N#C/C(=C\c1ccc(N(CCBr)CCBr)cc1)C(N)=O,inactive: -2.08%
14,C[C@H]1OP(=O)(Oc2ccccc2)C[C@@H]2O[C@@H]21 (some centres undefined),inactive: 18.8%
15,C[C@@H]1C=CCP(=O)(Oc2ccccc2)O1 (some centres undefined),inactive: 5.95%
16,Cc1ccccc1CN(C)C(=O)COC(=O)C(O)(c1ccccc1)c1ccccc1,inactive: 4.71%
17,CCN(CC)CCOC(=O)C(O)(c1ccccc1)c1ccccc1,inactive: -18.7%
18,CC(=O)Nc1ccc(Oc2c([N+](=O)[O-])cc([N+](=O)[O-])cc2[N+](=O)[O-])cc1,inactive: 3.99%
19,CC(=O)Nc1ccc([As](=O)(O)O)c(O)c1,inactive: 7.9%
20,CCNC(=S)/N=C(\N)N[N+](=O)[O-],inactive: -4.45%
21,O=C(NC1CCS(=O)(=O)C1)NP(=S)(Oc1ccccc1)Oc1ccccc1 (centres undefined),inactive: -4.09%

row,Compound,activation
1,C=C1C(=O)OC2CCN3CC=C(COC(=O)C(C)(O)C4(CO4)C1C)C23 (centres undefined),inactive: -0.29%
2,Cc1ccc(NP(=O)(Oc2cccc(C)c2)Oc2cccc(C)c2)nc1,inactive: 3.71%
3,c1ccc(-c2nn[nH]n2)c(-c2nn[nH]n2)c1,inactive: 11.3%
4,O=P1(N(CCCl)CCCl)OCCC2CCCCN21 (centres undefined),inactive: 1.34%
5,CC1C(=O)OC2CCN3CC4OC4(COC(=O)C(C)(O)C1(C)O)C23 (centres undefined),inactive: 1.46%
6,Cc1ccc(OP(=O)(Nc2ccccn2)Oc2ccc(C)cc2)cc1,inactive: -2.19%
7,CC(=O)NC(SC(=S)N(CC(C)C)CC(C)C)C(Cl)(Cl)Cl (centres undefined),inactive: -2.62%
8,COC(=O)c1cc2c(s1)N=C(c1ccccc1)N(C)P2(=O)N1CCOCC1 (centres undefined),inactive: 1.3%
9,CCC(=O)N1C2C3N(C(=O)CC)C1C1N(C(=O)CC)C(C(N1C(=O)CC)N3C(=O)CC)N2C(=O)CC,inactive: 10.2%
10,Clc1ccc(N2CCN(Cc3c[nH]c4ncccc34)CC2)cc1,inactive: -3.47%
11,O=C(OC1CN2CCC1CC2)c1ccccc1 (centres undefined),inactive: -19.6%
12,CCN(C(=O)COC(=O)C(O)(c1ccccc1)c1ccccc1)c1c(N)n(Cc2ccccc2)c(=O)[nH]c1=O,inactive: 2.42%
13,O=c1c2cc([N+](=O)[O-])ccc2[nH]c2c([N+](=O)[O-])cc([N+](=O)[O-])cc12,inactive: -1.67%
14,CN(C)C(=O)Oc1noc2ccccc12,inactive: -0.84%
15,CC(NC(=O)COC(=O)C(O)(c1ccccc1)c1ccccc1)c1ccccc1 (centres undefined),inactive: -6.01%
16,Cc1ccccc1OP(=O)(Nc1ccccn1)Oc1ccccc1C,inactive: -15.4%
17,CCCC1OP(N)(=O)OCC1CC (centres undefined),inactive: -1.89%
18,CC(=O)O[C@]1(C)C(=O)OC/C2=C/CN(C)CCC(OC(=O)[C@@](O)(C(C)O)C[C@H]1C)C2=O (some centres undefined),inactive: 2.88%
19,CC(=O)Nc1ccc([As](=O)(O)O)cc1,inactive: -1.28%
20,O=C(O)c1ccccc1[As](=O)(O)O,inactive: -4.44%
21,O=P(Nc1nc2ccc(Cl)cc2s1)(c1ccccc1)c1ccccc1,inactive: -14.2%

row,Compound,activation
1,CN(C)P(=O)(N(C)C)n1c(Nc2ccccc2)nnc1-c1ccccc1,inactive: 1.84%
2,Cc1ccc(NP(=O)(Oc2ccccc2F)Oc2ccccc2F)nc1,inactive: -20%
3,CN(C(=O)Cc1ccc(Cl)c(Cl)c1)[C@H]1CCCC[C@@H]1N1CCCC1,inactive: -7.79%
4,Cc1cc(SC(NC(=O)c2ccc(F)cc2)C(Cl)(Cl)Cl)ncn1 (centres undefined),inactive: -3.3%
5,CCOP(=O)(Nc1ccccc1)OCC,inactive: -2.18%
6,CCN(N=Nc1nonc1N)c1nonc1N,inactive: -5.83%
7,Nc1cccc2ccc([As](=O)(O)O)cc12,inactive: -11.5%
8,NC(=O)c1cc([N+](=O)[O-])cc([N+](=O)[O-])c1N,inactive: 2.41%
9,Cc1ccc(N/C(=N/P(=O)(N2CCOCC2)N2CCOCC2)N2CCOCC2)cc1,inactive: 7.2%
10,CN(C(=O)Cc1ccc(Cl)c(Cl)c1)[C@H]1CCCC[C@H]1N1CCCC1,inactive: -4.81%
11,Cc1ccc(OP(=O)(Nc2nccs2)Oc2ccc(C)cc2)cc1,inactive: 7.43%
12,COc1ccccc1OP(=O)(Nc1ccc(C)cn1)Oc1ccccc1OC,inactive: 0.32%
13,CC(C)[C@H]1C(=O)O[C@@H]2CCN3CC=C(COC(=O)[C@](C)(O)[C@]1(C)O)[C@H]23,inactive: -7.95%
14,CN1CCCC(OC(=O)C(c2ccccc2)c2ccccc2)C1 (centres undefined),inactive: -15.1%
15,Clc1ccc(Cl)c(NC2=NCC(CBr)S2)c1 (centres undefined),inactive: 7.51%
16,Nc1cc(N)c2nonc2c1[N+](=O)[O-],inactive: -12.6%
17,CC(C)CC(=O)NC(Sc1ccc(Cl)cc1)C(Cl)(Cl)Cl (centres undefined),inactive: -2.85%
18,O=C(NC(Sc1ccncn1)C(Cl)(Cl)Cl)c1ccccc1 (centres undefined),inactive: 0.17%
19,Oc1ccccc1CNc1ccccn1,inactive: 8.26%
20,O=[N+]([O-])C1C(O)C(O)C([N+](=O)[O-])C(O)C1O (centres undefined),inactive: 3.24%
21,COc1ccc(C2=NCC(CBr)S2)cc1 (centres undefined),inactive: 0.2%

row,Compound,activation
1,O=[N+]([O-])c1cccc2n[nH]nc12,inactive: 8.22%
2,CC(=O)N1C2C3N(C(C)=O)C1C1N(C(C)=O)C(C(N1C(C)=O)N3C(C)=O)N2C(C)=O,inactive: -1%
3,CCc1nc2c(n1)c1c(non1O)c1c2no[n+]1[O-],inactive: -3.09%
4,O=[N+]([O-])c1cc([N+](=O)[O-])c(CCNc2ccccc2)c([N+](=O)[O-])c1,inactive: 0.76%
5,Cc1ccc(NP(=O)(Oc2ccccc2)Oc2ccccc2)nc1,inactive: 0.75%
6,C[N+]1=C2C=CC=CC=C2SC12C([N+](=O)[O-])=CC([N+](=O)[O-])=C[C-]2[N+](=O)[O-] (centres undefined),inactive: -1.99%
7,Nc1ccc([As](=O)(O)c2ccc(N)cc2)cc1,inactive: 1.02%
8,CCN(/C(=N/P(=O)(N1CCOCC1)N1CCOCC1)N1CCOCC1)c1ccc(OC)cc1,inactive: 13.2%
9,CN(C)C(=O)OCCc1n(C)cc[n+]1C,inactive: -2.14%
10,CC(C)c1nc(Nc2ccccc2)n(P(=O)(N(C)C)N(C)C)n1,inactive: 6.51%
11,CC(C)=N/N=C(\N)N[N+](=O)[O-],inactive: 4.08%
12,CC1CCN(C(=O)Oc2c(Cl)cc(Cl)c3cccnc23)CC1,inactive: 2.49%
13,c1cc(-c2nn[nH]n2)ccc1-c1nn[nH]n1,inactive: 4.72%
14,O=P1(N(CCCl)CCCl)OCCCS1 (centres undefined),inactive: 7.66%
15,O=C(Nc1cc([As](=O)(O)O)ccc1O)c1ccccc1,inactive: 4.46%
16,CC(C)(C)C(=O)NC(Sc1ccncn1)C(Cl)(Cl)Cl (centres undefined),inactive: 33.9%
17,O=[N+]([O-])c1ncn(CCn2ncnc2[N+](=O)[O-])n1,inactive: 3.11%
18,COC(=O)C1(C)COP(=O)(Nc2ccccc2)OC1 (centres undefined),inactive: 2.9%
19,O=[N+]([O-])c1cccc(NC2=NCC(CBr)S2)c1 (centres undefined),inactive: -0.9%
20,O=C(O)CNc1ccc([As](=O)(O)O)cc1,inactive: -0.15%
21,C/C=C1/C[C@@H](C)[C@](O)(CO)C(=O)OCC2=CCN3CC[C@@H](OC1=O)[C@@H]23,inactive: 0.53%
